Reference: patent US6426331B1, “Inhibitors of STAT function” (Tularik Inc., priority 1998, dated 2002)

Protein sequences, listed by entry. Tags and fused reporters are not part of them.
UniProt P42226, whole entry: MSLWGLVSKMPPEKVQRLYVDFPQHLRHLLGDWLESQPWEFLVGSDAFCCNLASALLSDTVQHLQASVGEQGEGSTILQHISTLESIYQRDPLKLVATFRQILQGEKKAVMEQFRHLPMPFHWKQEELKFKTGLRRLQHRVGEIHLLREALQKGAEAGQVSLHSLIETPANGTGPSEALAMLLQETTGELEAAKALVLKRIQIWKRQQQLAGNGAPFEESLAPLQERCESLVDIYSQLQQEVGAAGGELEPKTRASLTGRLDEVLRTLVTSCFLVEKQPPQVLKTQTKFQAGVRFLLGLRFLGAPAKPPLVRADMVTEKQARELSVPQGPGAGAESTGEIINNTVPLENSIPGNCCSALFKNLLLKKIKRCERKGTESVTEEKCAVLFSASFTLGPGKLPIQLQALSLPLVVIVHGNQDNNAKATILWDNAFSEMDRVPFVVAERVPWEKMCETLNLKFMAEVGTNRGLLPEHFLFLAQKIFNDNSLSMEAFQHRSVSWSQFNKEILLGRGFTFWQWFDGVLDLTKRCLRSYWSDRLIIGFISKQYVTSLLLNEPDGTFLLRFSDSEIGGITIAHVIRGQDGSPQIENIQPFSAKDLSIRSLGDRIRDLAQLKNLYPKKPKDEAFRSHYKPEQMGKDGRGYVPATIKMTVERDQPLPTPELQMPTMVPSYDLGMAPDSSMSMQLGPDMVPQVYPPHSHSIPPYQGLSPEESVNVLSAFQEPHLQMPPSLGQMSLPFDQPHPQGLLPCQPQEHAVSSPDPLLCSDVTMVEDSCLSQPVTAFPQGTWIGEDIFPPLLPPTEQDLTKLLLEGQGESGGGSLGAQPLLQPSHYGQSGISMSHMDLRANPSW

Target: STAT6 (Homo sapiens, UniProt P42226)
Test: Inhibition of STAT6 binding (duplex formation)
Settings: Table 5
Description: The compounds of the present invention can be evaluated for STAT binding activity using methods such as those described in U.S. Pat. No. 6,207,391 (for STAT6 binding). Other assays for STAT binding can be found in, for example, U.S. Pat. Nos. 5,618,693, 5,639,858 and 5,756,700.
Using methods similar to those described in Examples 1 and 2, the compounds provided in Table 1 were prepared and evaluated as inhibitors of STAT6 binding (duplex formation). The assay is described in U.S. Pat. No. 6,207,391, filed Mar. 31, 1998. In each of the tables below: a + symbol indicates and IC50 of >100 μM; a ++ symbol indicates and IC50 of 50-100 μM; a +++ symbol indicates and IC50 of 1-50 μM; and a ++++ symbol indicates and IC50 of <1.0 μM.

`CC(C)(C)[C@H](NC(=O)/C=C/c1ccc(OP(=O)(O)O)cc1)C(=O)N1CCC[C@H]1C(=O)N(Cc1ccccc1)Cc1ccccc1` was tested, and the IC50 was under 1 µM.
